Test results: PMC4136963, “Structure-Based Design and Synthesis of Antiparasitic Pyrrolopyrimidines Targeting Pteridine Reductase 1” (Journal of Medicinal Chemistry, 2014)
Counter-ions that a name gives are not always drawn.

What was measured:
[1] = target: T1, TbPTR1 (Trypanosoma brucei brucei, UniProt O76290); settings: apparent Ki, competitive inhibition assumed; Insol = insoluble
T1 sequence (O76290 1-268): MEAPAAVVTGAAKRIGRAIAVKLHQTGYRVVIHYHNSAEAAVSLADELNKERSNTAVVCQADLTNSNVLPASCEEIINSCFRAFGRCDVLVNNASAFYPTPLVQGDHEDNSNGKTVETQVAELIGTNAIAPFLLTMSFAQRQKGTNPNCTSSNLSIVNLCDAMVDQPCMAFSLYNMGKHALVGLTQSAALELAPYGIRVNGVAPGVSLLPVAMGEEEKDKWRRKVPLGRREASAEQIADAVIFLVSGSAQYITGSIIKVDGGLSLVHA

[2] = target: T1, TbPTR1; experiment: biochemical

TbPTR1 (Ki^app μM) [1] | Compound | Ki [2]
Insol | N#Cc1c[nH]c2nc(N)nc(N3CCCC3)c12 [compound 13, 2-Amino-4-(1-pyrrolidinyl)-7H-pyrrolo[2,3-d]pyrimidine-5-carbonitrile] | –
Insol | Cc1ccc(-c2[nH]c3nc(N)nc(N)c3c2-c2ccc(C)cc2)cc1 [35f] | –
Insol | CS(=O)(=O)c1ccc(-c2[nH]c3nc(N)[nH]c(=O)c3c2-c2ccccc2)cc1 [34k] | –
– | Nc1nc(N)c(C(CCc2ccccc2)C[N+](=O)[O-])c(=O)[nH]1 (stereo not shown) [26d] | > 100 µM
Insol | COc1ccc(-c2c(-c3ccc(F)cc3)[nH]c3nc(N)[nH]c(=O)c23)cc1 [34f] | –
– | Nc1nc(N)c(C(C[N+](=O)[O-])c2ccc(F)cc2)c(N)n1 (stereo not shown) [28b] | ~50 µM
– | Nc1nc2[nH]c(-c3ccc(CCCN4CCOCC4)cc3)c(-c3ccccc3)c2c(=O)[nH]1 [compound 38, 2-Amino-6-{4-[3-(4-morpholinyl)propyl]phenyl}-5-phenyl-3,7-dihydro-4H-pyrrolo[2,3-d]pyrimidin-4-one trifluoroacetate] | > 10 µM
– | Cc1ccc(C(C[N+](=O)[O-])c2c(N)nc(N)[nH]c2=O)cc1 (stereo not shown) [26a] | > 100 µM
– | Nc1nc(N)c(C(C[N+](=O)[O-])c2ccccc2)c(=O)[nH]1 (stereo not shown) [26c, 2,6-diamino-5-(2-nitro-1-phenylethyl)-4(3H)-pyrimidinone] | > 100 µM
Insol | CN(C)c1nc(N)nc2[nH]c(-c3ccc(F)cc3)c(-c3ccccc3)c12 [36c] | –
Insol | CN(C)c1nc(N)nc2[nH]c(-c3ccc(F)cc3)c(-c3ccc(F)cc3)c12 [36a] | –
Insol | CC(C)Oc1nc(N)nc2[nH]cc(-c3ccc(F)cc3)c12 [31c, 5-(4-Fluorophenyl)-4-isopropyloxy-7H-pyrrolo[2,3-d]pyrimidin-2-amine] | –
Insol | Nc1nc(N)c2c(-c3ccc(Cl)cc3)c(-c3ccc(Cl)cc3)[nH]c2n1 [35d] | –
Insol | CN(C)c1nc(N)nc2[nH]c(-c3ccc(Cl)cc3)c(-c3ccc(Cl)cc3)c12 [36b] | –
– | COc1nc(N)nc2[nH]cc(C#N)c12 [12a] | ~75 µM
– | Nc1nc(N)c(C(C[N+](=O)[O-])c2ccc(F)cc2)c(NC2CCCCC2)n1 (stereo not shown) [30b] | > 100 µM
– | Nc1nc(N)c(C(C[N+](=O)[O-])c2ccc(F)cc2)c(=O)[nH]1 (stereo not shown) [26b] | > 100 µM
– | Nc1nc(N)c(C(CCc2ccccc2)C[N+](=O)[O-])c(N)n1 (stereo not shown) [28d] | > 100 µM
– | CC(C)COc1nc(N)nc(N)c1C(C[N+](=O)[O-])c1ccc(F)cc1 (stereo not shown) [30a] | > 100 µM

Compound | TbPTR1 (Ki^app μM) [1] | Ki [2]
Cc1ccc(C(C[N+](=O)[O-])c2c(N)nc(N)nc2N)cc1 (stereo not shown) [28a] | Insol | –
Nc1nc(N)c(C(C[N+](=O)[O-])c2ccccc2)c(N)n1 (stereo not shown) [28c, 5-(2-Nitro-1-phenylethyl)-2,4,6-pyrimidinetriamine] | Insol | –
CC(C)Oc1nc(N)nc(N)c1C(C[N+](=O)[O-])c1ccc(F)cc1 (stereo not shown) [30c, 5-[1-(4-Fluorophenyl)-2-nitroethyl]-6-isopropyloxy-2,4-pyrimidinediamine] | Insol | –
